According to US4007196A, “4-Phenylpiperidine compounds” (priority 1973, dated 1977):

System: 5HT-uptake
Assay: Antagonism of p-chloroamphetamine (PCA)-induced 5HT-depletion from rat brain (5HT-uptake inhibitory activity)
Type: in vivo
Conditions: for ED50: rat brain
Text: 5HT-uptake inhibitory activity
Antagonism of p-chloroamphetamine (PCA)-induced 5HT-depletion from rat brain: […]

[1] = sc, test drugs administered s.c. simultaneously with PCA, read-out: ED50 s.c., antagonism of PCA-induced 5HT-depletion

Compound | 5HT potentiator activity compared with Imipramine (comparison in words) | ED50 (po, p.o., test drugs administered 3 hours before PCA, read-out: ED50 p.o., antagonism of PCA-induced 5HT-depletion) [mg/kg] | ED50 (po, p.o., test drugs administered 18 hours before PCA, read-out: ED50 p.o., antagonism of PCA-induced 5HT-depletion) [mg/kg] | ED50 [1] [mg/kg] | ED50 p.o., antagonism of PCA-induced 5HT-depletion (po, 3 h) | ED50 (po, p.o., test drugs administered 2 hours before PCA, read-out: ED50 p.o., antagonism of PCA-induced 5HT-depletion) [mg/kg]
Fc1ccc(C2CCNCC2COc2ccc3c(c2)OCO3)cc1 (single isomer, unassigned) [GF 74, (-)-α-4-(4-Fluorophenyl)-3-(1,3-benzdioxolyl-(3))-oxymethyl piperidine maleate] | more active 5HT potentiators than is Imipramine | 0.8 | 2 to 10 | 0.2 | – | –
CN(C)CCCN1c2ccccc2CCc2ccc(Cl)cc21 [Chlorimipramine] | – | – | – | 1 | + | 42

Counter-ions that a name gives are not always drawn. Like-named read-outs stand apart in the source and are kept apart here.
